The results in this text go back to patent publication US20240254224A1 (UCB, published 2024).

By UniProt entry, the sequences of proteins in these tests, tags left out. Residues count along the entry.
UniProt Q9NP99, 21-234: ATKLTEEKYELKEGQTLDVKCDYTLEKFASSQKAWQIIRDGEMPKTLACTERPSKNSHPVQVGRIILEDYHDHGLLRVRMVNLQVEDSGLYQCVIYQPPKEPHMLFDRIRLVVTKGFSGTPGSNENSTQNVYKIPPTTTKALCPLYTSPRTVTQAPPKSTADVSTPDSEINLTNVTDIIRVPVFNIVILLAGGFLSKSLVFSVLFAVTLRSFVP
UniProt Q9NP99, 21-205 limits assumed: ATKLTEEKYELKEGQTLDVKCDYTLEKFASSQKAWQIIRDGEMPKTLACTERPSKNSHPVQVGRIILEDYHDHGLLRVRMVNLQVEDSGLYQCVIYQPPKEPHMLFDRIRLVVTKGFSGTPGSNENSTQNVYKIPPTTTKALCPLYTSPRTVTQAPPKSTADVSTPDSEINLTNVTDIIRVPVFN

Substitutions are numbered along the chain they refer to. “And” between values parts separate entries of the source, which are not always exact repeats. Equal entries are not always repeated.

B1: 12172 gL6gH6 hIgG4P (antibody)
heavy: not shown
light: DIVLTQSPSFLSASVGDRVTITCQASQNIGSDLAWYQQKPGKAPKLLIYKAATLASGVPSRFSGSGSGTEFTLTISSLQPEDFATYYCQQYYYGSAGADTDTFGGGTKVEIKRTVAAPSVFIFPPSDEQLKSGTASVVCLLNNFYPREAKVQWKVDNALQSGNSQESVTEQDSKDSTYSLSSTLTLSKADYEKHKVYACEVTHQGLSSPVTKSFNRGEC
notes: Humanised IgG4P, human kappa
B2: 12172 gL6gH6 hIgG1 LALA (antibody)
heavy: not shown
light: B1 light
B3: 12172 gL2gH11 hIgG1 LALA (antibody)
heavy: not shown
light: B1 light with V3Q
B4: 12172gL2gH1 (antibody, human IgG4 S228P, kappa)
heavy: not shown
light: B1 light with V3Q
B5: 12172gL2gH2 (antibody, human IgG4 S228P, kappa, V domains shown)
VH: EVQLVESGGGLVQPGGSLRLSCAASGFSLSSYAMTWVRQAPGKGLEWVGIIYAGGSPSYASWAKGRFTISKDSSKNTVYLQMNSLRAEDTAVYYCARGTGDTVYTYFNIWGQGTLVTVSS
VL: DIQLTQSPSFLSASVGDRVTITCQASQNIGSDLAWYQQKPGKAPKLLIYKAATLASGVPSRFSGSGSGTEFTLTISSLQPEDFATYYCQQYYYGSAGADTDTFGGGTKVEIKR
B6: 12172gL2gH9 (antibody, human IgG4 S228P, kappa, V domains shown)
VH: B5 VH with V48I, K71R, S73N
VL: B5 VL
B7: 12172gL2gH10 (antibody, human IgG4 S228P, kappa, V domains shown)
VH: B5 VH with V48I, K71R, V78L
VL: B5 VL
B8: 12172gL6gH11 (antibody, human IgG4 S228P, kappa)
heavy: not shown
light: B1 light
B9: 12172gL1gH1 (antibody, human IgG4 S228P, kappa)
heavy: not shown
light: B1 light with D1A, I2V
B10: 12172gL2gH6 (antibody, human IgG4 S228P, kappa)
heavy: not shown
light: B1 light with V3Q
B11: 12172gL6gH4 (antibody, human IgG4 S228P, kappa)
heavy: not shown
light: B1 light
B12: 12172gL2gH12 (antibody, human IgG4 S228P, kappa, V domains shown)
VH: B5 VH with V48I, K71R, S73N, V78L
VL: B5 VL
B13: 12172gL2gH4 (antibody, human IgG4 S228P, kappa)
heavy: not shown
light: B1 light with V3Q
B14: 12172gL2gH8 (antibody, human IgG4 S228P, kappa, V domains shown)
VH: B5 VH with V48I
VL: B5 VL
B15: 12172gL9gH26 (antibody, human IgG4 S228P, kappa)
heavy: not shown
light: B1 light with V3Q, R18S
B16: 12172gL11gH26 (antibody, human IgG4 S228P, kappa, V domains shown)
VH: B5 VH with V48I, S73N, K75S, V78L
VL: B5 VL with K50S
B17: 12172gL10gH26 (antibody, human IgG4 S228P, kappa, V domains shown)
VH: B5 VH with V48I, S73N, K75S, V78L
VL: B5 VL with K42Q
notes: Recombinant IgG4P charge mutant
B18: 12172gL2gH26 (antibody, human IgG4 S228P, kappa)
heavy: not shown
light: B1 light with V3Q

One test has as its target T1, human TREM1 on cells (human, UniProt Q9NP99 21-234). The experiment in a line: cell-based or functional assay.
As to B1, the “Geo IC50, IL-1β release from PGN-BS/PGLYRP1-activated primary human monocytes (n = 2)” value (from here on “Geo IC50, IL-1β release”) worked out at 0.028 nM; the “Geo IC50, IL-6 release from PGN-BS/PGLYRP1-activated primary human monocytes (n = 4)” value (“Geo IC50, IL-6 release” below) is 0.036 nM; the “Geo IC50, TNF-α release from PGN-BS/PGLYRP1-activated primary human monocytes (n = 4)” value (from here on “Geo IC50, TNF-α release”) was determined as 0.026 nM.

On to B2, for which the “Geo IC50, IL-1β release” value was 0.025 nM; the “Geo IC50, IL-6 release” value amounted to 0.178 nM; the “Geo IC50, TNF-α release” value came out at 0.054 nM.

Turning to B3, the “Geo IC50, IL-1β release” value was determined as 0.032 nM; the “Geo IC50, IL-6 release” value worked out at 0.112 nM; the “Geo IC50, TNF-α release” value worked out at 0.043 nM.

The next test concerns the target T1, human TREM1 on cells. The experiment in a line: cell-based or functional assay. This is another data set of the same source.
For B1, the “percentage inhibition of CCL-3 release, activated primary human monocytes, antibody 1 nM” value (“percentage inhibition of CCL-3 release” below) was found to be 38%; the “percentage inhibition of CCL-20 release, activated primary human monocytes, antibody 1 nM” value (from here on “percentage inhibition of CCL-20 release”) stood at 56%; the “percentage inhibition of CXCL-9 release, activated primary human monocytes, antibody 1 nM” value (“percentage inhibition of CXCL-9 release” below) turned out to be 73%; the “percentage inhibition of G-CSF release, activated primary human monocytes, antibody 1 nM” value (shortened to “percentage inhibition of G-CSF release”) was 88%. Besides, the “percentage inhibition of GM-CSF release, activated primary human monocytes, antibody 1 nM” value (“percentage inhibition of GM-CSF release” below) came out at 89%; the “percentage inhibition of IFN-γ release, activated primary human monocytes, antibody 1 nM” value (shortened to “percentage inhibition of IFN-γ release”) amounted to 57%; the “percentage inhibition of IL-1α release, activated primary human monocytes, antibody 1 nM” value (“percentage inhibition of IL-1α release” below) is 107%; the “percentage inhibition of IL-1β release, activated primary human monocytes, antibody 1 nM” value (from here on “percentage inhibition of IL-1β release”) was determined as 96%. The “percentage inhibition of IL-6 release, activated primary human monocytes, antibody 1 nM” value (shortened to “percentage inhibition of IL-6 release”) came out at 57%; the “percentage inhibition of IL-10 release, activated primary human monocytes, antibody 1 nM” value (shortened to “percentage inhibition of IL-10 release”) is 83%; the “percentage inhibition of IL-12p40 release, activated primary human monocytes, antibody 1 nM” value is 96%; the “percentage inhibition of IL-15 release, activated primary human monocytes, antibody 1 nM” value (“percentage inhibition of IL-15 release” below) is 69%. The “percentage inhibition of IL-18 release, activated primary human monocytes, antibody 1 nM” value (from here on “percentage inhibition of IL-18 release”) stood at 78%; the “percentage inhibition of IL-27 release, activated primary human monocytes, antibody 1 nM” value (shortened to “percentage inhibition of IL-27 release”) was 57%; the “percentage inhibition of TNF-α release, activated primary human monocytes, antibody 1 nM” value (“percentage inhibition of TNF-α release” below) was 93%; the “percentage inhibition of TNF-β release, activated primary human monocytes, antibody 1 nM” value (from here on “percentage inhibition of TNF-β release”) came to 63%.

With B2, the “percentage inhibition of CCL-3 release” value was 26%; the “percentage inhibition of CCL-20 release” value was 66%; the “percentage inhibition of CXCL-9 release” value turned out to be 68%; the “percentage inhibition of G-CSF release” value amounted to 86%. For the same molecule, the “percentage inhibition of GM-CSF release” value turned out to be 89%; the “percentage inhibition of IFN-γ release” value is 53%; the “percentage inhibition of IL-1α release” value amounted to 110%; the “percentage inhibition of IL-1β release” value stood at 97%. The “percentage inhibition of IL-6 release” value is 55%; the “percentage inhibition of IL-10 release” value was 73%; the “percentage inhibition of IL-12p40 release, activated primary human monocytes, antibody 1 nM” value is 95%; the “percentage inhibition of IL-15 release” value was found to be 92%. The “percentage inhibition of IL-18 release” value turned out to be 81%; the “percentage inhibition of IL-27 release” value worked out at 74%; the “percentage inhibition of TNF-α release” value is 94%; the “percentage inhibition of TNF-β release” value was 60%.

Take B3: the “percentage inhibition of CCL-3 release” value turned out to be 48%; the “percentage inhibition of CCL-20 release” value turned out to be 65%; the “percentage inhibition of CXCL-9 release” value was determined as 72%; the “percentage inhibition of G-CSF release” value amounted to 89%. The “percentage inhibition of GM-CSF release” value turned out to be 91%; the “percentage inhibition of IFN-γ release” value is 60%; the “percentage inhibition of IL-1α release” value is 112%; the “percentage inhibition of IL-1β release” value amounted to 96%. Also, the “percentage inhibition of IL-6 release” value worked out at 58%; the “percentage inhibition of IL-10 release” value was determined as 77%; the “percentage inhibition of IL-12p40 release, activated primary human monocytes, antibody 1 nM” value was 96%; the “percentage inhibition of IL-15 release” value came to 86%. Further, the “percentage inhibition of IL-18 release” value is 85%; the “percentage inhibition of IL-27 release” value came to 88%; the “percentage inhibition of TNF-α release” value turned out to be 94%; the “percentage inhibition of TNF-β release” value was 62%.

For another test, the target named is T1, human TREM1 on cells. The experiment in a line: cell-based or functional assay. The source holds these as a separate data set.
For B1, the “pSYK inhibition Emax, hTREM1/hDAP-12 Flp-In 293 cells stimulated with PGN-EC/PGLYRP1” value was determined as 57% and the “pSYK inhibition IC50, hTREM1/hDAP-12 Flp-In 293 cells stimulated with PGN-EC/PGLYRP1” value is 357 pM.

For the molecule B2, the “pSYK inhibition Emax, hTREM1/hDAP-12 Flp-In 293 cells stimulated with PGN-EC/PGLYRP1” value stood at 79% and the “pSYK inhibition IC50, hTREM1/hDAP-12 Flp-In 293 cells stimulated with PGN-EC/PGLYRP1” value turned out to be 960 pM.

Regarding B3, the “pSYK inhibition Emax, hTREM1/hDAP-12 Flp-In 293 cells stimulated with PGN-EC/PGLYRP1” value turned out to be 72% and the “pSYK inhibition IC50, hTREM1/hDAP-12 Flp-In 293 cells stimulated with PGN-EC/PGLYRP1” value was 372 pM.

The next test has as its target T2, human TREM1 (SPR of the humanised grafts, construct not stated) (human, UniProt Q9NP99 21-205, limits assumed). Kind of test: SPR, human TREM1, humanised IgG4P graft. (In general: Surface plasmon resonance follows binding to a sensor surface in real time, without labels.)
In the case of B1, the Kd came out at 0.463 nM.

The molecule B4 returned a Kd of 0.442 nM.

The molecule B5 yielded a Kd of 0.989 nM.

Take B6: the Kd was found to be 0.362 nM.

In the case of B7, the Kd came out at 1.97 nM.

As to B8, the Kd worked out at 0.336 nM.

With B9, binding was put at a Kd of 0.437 nM.

As for B10, the Kd was 0.581 nM.

B11 had a Kd of 0.619 nM.

Molecule B12 came in with a Kd of 0.718 nM.

On to B13, for which the Kd is 0.693 nM.

For B14, binding was put at a Kd of 0.476 nM.

Another test addresses T2, human TREM1 (SPR of the humanised …). The experiment in a line: SPR, human TREM1, IgG4P charge mutant, replicate values.
As to B15, the Kd was 0.559 nM and 0.616 nM.

Regarding B16, the Kd is 0.532 nM and 0.633 nM.

As for B17, the Kd was 0.578 nM and 0.659 nM.

Consider B18, for which the Kd is 0.624 nM and 0.672 nM.

Usually Kd stands for the equilibrium constant for the complex coming apart.
